24 compounds from PubChem BioAssay AID1885 (Broad Institute, 2009) can be followed below.

The list shows a part of the results, in another mix than the full data. Some of these compounds have results that are not shown, active ones among them. Activity calls are given as the source filed them.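 Rule for the calls: active = mean inhibition across valid replicates above about 55% (limit read from the data); inconclusive = mean below that limit but half or more replicates reach it; inactive = mean below it, under half of replicates reach it.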

The experiment can be described thus: Trypanosoma cruzi replication blockers in host cells – luminescence, NIH3T3 host cells, primary screen (AID 1885).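 Note: 0% = plate median of DMSO wells and 100% = zero luminescence signal; higher percent means less beta-gal luminescence so fewer parasites.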 The conditions noted are these: T. cruzi beta-gal in NIH3T3, luminescence, 90 h; stronger effect = higher value; concentration not given here. Summed up:
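Read-out: Parasite load inhibition, % | Test system: Mouse NIH/3T3 fibroblasts infected with β-gal-expressing T. cruzi Tulahuen C4 | Amount: 5,000 cells/well | Medium: DMEM, 2% fetal bovine serum | Signal: GalScreen β-gal luminescence, detergent lysis, 60 min | Timing: 3 h attach, ≥90 h co-culture | Also added: Tulahuen C4 trypomastigotes, 5000/well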
Usually inhibition stands for the drop in the measured response relative to a control, in per cent. With `O=C(NCC1(N2CCCCC2)CCCCC1)c1cc(F)c(F)cc1Cl`, the inhibition was inactive: 2.81%. Under `C=CCN1CCN(CCOC(=O)C(O)(c2ccccc2)c2ccccc2)CC1` stands inactive: -0.26%; under `O=C(NCC1(N2CCCCC2)CCCCC1)c1cccc(Br)c1`, inactive: 27.8%; under `Cc1cc(C(=O)NCC2(N3CCCCC3)CCCCC2)ccc1[N+](=O)[O-]`, inactive: -1.61%.

As for `CCN1CCCC(OC(=O)C2(O)c3ccccc3C=Cc3ccccc32)C1` (centres undefined), the inhibition is inactive: -8.49%. With `COc1ccc(C(=O)NCC2(N(C)C)CCCCC2)cc1`, the inhibition was inactive: -4.49%. On to `CN(C)C1CCCC1OC(=O)C(O)(c1ccccc1)c1ccccc1` (centres undefined), for which the inhibition is inactive: -7.65%.

`CN(C)c1ccc(C(=O)NCC2(N(C)C)CCCCC2)cc1`: the inhibition is inactive: -3.79%. The figure for `Cc1ccccc1C(=O)NCC1(N2CCCCC2)CCCCC1` is inactive: 16.6%; for `CC(C)N1C(=O)CC2(CCN(CCOC(=O)C(O)(c3ccccc3)c3ccccc3)CC2)C1=O` it is inactive: -4.47%; for `COc1cc(SC)ccc1C(=O)NCC1(N(C)C)CCCCC1` it is inactive: 25.8%.

With `CCN(CC)CC(C)C(C)OC(=O)C(O)(c1ccccc1)c1ccccc1` (centres undefined), the inhibition was inactive: -0.498%. Turning to `Cc1ccc(C(=O)NCC2(N3CCCCC3)CCCCC2)cc1`, the inhibition was inactive: 3.24%. Turning to `O=C(NCC1(N2CCCCC2)CCCCC1)c1cc([N+](=O)[O-])ccc1Cl`, the inhibition is inactive: -13%. As for `CN1[C@@H]2CC[C@H]1CC(OC(=O)C(O)(c1ccccc1)c1ccccc1)C2` (some centres undefined), the inhibition is inactive: -10.5%. The figure for `COc1ccc(Br)c(C(=O)NCC2(N3CCCCC3)CCCCC2)c1` is inactive: 40.8%; for `CN(C)c1cccc(C(=O)NCC2(N(C)C)CCCCC2)c1` it is inactive: 4.17%. Turning to `CC(C)Oc1ccc(C(=O)NCC2(N(C)C)CCCCC2)cc1`, the inhibition was inactive: -19.6%. Under `O=C(OC1CN2CCC1CC2)C(CO)(c1ccccc1)c1ccccc1` (centres undefined) stands inactive: -42.2%; under `COc1ccc(Cl)cc1C(=O)NCC1(N(C)C)CCCCC1`, inactive: -9.2%.

With `COc1cccc(C(=O)NCC2(N3CCCCC3)CCCCC2)c1`, the inhibition was inactive: -7.71%. The figure for `O=C(NCC1(N2CCCCC2)CCCCC1)c1cccc(Cl)c1` is inactive: 11.2%; for `CN(C)C1(CNC(=O)c2ccc(Br)cc2)CCCCC1` it is inactive: 3.53%; for `COc1cc(C(=O)NCC2(N(C)C)CCCCC2)c([N+](=O)[O-])cc1OC` it is inactive: 0.936%.
